Measurements taken from the supplement of paper PMC8183993.
Where a name gives a salt, the structure may show the parent alone. The lowest values were mostly taken out for another list; the other results follow.

These compounds were tested on U2OS (assay: nuclei count (viability) relative to DMSO (% of DMSO); higher = more viable cells). Details: 10 µM; 24 h.
Experimental: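 Primary image-based screen in U2OS cells: compounds at 10 uM for 24 h, then a 1 h o-propargyl-puromycin (OPP) pulse, click labelling, and high-throughput microscopy. Mean cytoplasmic OPP intensity and nuclei count were normalised to DMSO wells within each plate (DMSO = 100) and averaged over triplicate plates.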
Work on N/C(=N/CCc1ccc(I)cc1)SCCCc1cnc[nH]1 [Iodophenpropit dihydrobromide] yielded a nuclei count of 94.4.
